Experimental data as given in US20260217835A1 (published 2026).

Target: the molecule itself
Test: co-expression of full-length heavy chain, light chain and Fc fragment in Expi293F, Protein G purification, SEC peak area ratio

B1: IgG4 Fc fragment without modification (SEQ ID NO: 102) (other)
chain: ESKYGPPCPPCPAPEFLGGPSVFLFPPKPKDTLMISRTPEVTCVVVDVSQEDPEVQFNWYVDGVEVHNAKTKPREEQFNSTYRVVSVLTVLHQDWLNGKEYKCKVSNKGLPSSIEKTISKAKGQPREPQVYTLPPSQEEMTKNQVSLTCLVKGFYPSDIAVEWESNGQPENNYKTTPPVLDSDGSFFLYSRLTVDKSRWQEGNVFSCSVMHEALHNHYTQKSLSLSL
notes: Fc fragment co-expressed with a full-length heavy chain and the light chain; the associating unit is one Fc chain; also called WT-IgG4 Fc fragment
- Homo Fc fragment (%): 27.3%
